Measurements: ChEMBL document CHEMBL4364301 (Eur J Med Chem, 2019)

Tests used:
Format in all cases: functional
DU-145 = test: Antiproliferative activity against human DU145 cells assessed as reduction in cell growth incubated for 96 hrs by propidium iodide based 2D monolayer assay
Outline: (§1)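 After 24 h recovery, compound in medium or medium alone (control wells) was added at 10 half-log concentrations from 0.0032 to 100 µM, in triplicate, with at most 0.3% DMSO. After 96 h, wells were PBS-washed, stained with 7 µg/ml PI and 0.1% Triton X-100, and fluorescence read at 530/620 nm. IC50 came from a 4-parameter fit, geometric mean.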

CWR22R = test: Antiproliferative activity against human 22Rv1 cells assessed as reduction in cell growth incubated for 96 hrs by propidium iodide based 2D monolayer assay; outline: as §1
LNCaP = test: Antiproliferative activity against human LNCAP cells assessed as reduction in cell growth incubated for 96 hrs by propidium iodide based 2D monolayer assay; outline: as §1
VCaP = test: Antiproliferative activity against human VCaP cells assessed as reduction in cell growth incubated for 96 hrs by propidium iodide based 2D monolayer assay
Outline: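 VCaP cells in RPMI 1640 with 10% FCS at 37 °C, 5% CO2, seeded 4,000–20,000 cells/well and left 24 h before dosing. Compounds from DMSO stocks were diluted in half-log steps in medium, 10 concentrations 0.0032–100 μM, triplicate wells, max 0.3% DMSO. After 96 h, cells were washed, stained with 7 μg/ml propidium iodide plus 0.1% Triton X-100 for 1–2 h at room temperature, and fluorescence read at ex 530/em 620 nm.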

Measured: Activity

CC(O)(CS(=O)(=O)c1ccc(F)cc1)C(=O)Nc1cccc(S(F)(F)(F)(F)F)c1 (racemic)
active: DU-145 = Dose-dependent effect | CWR22R Dose-dependent effect | LNCaP Dose-dependent effect | VCaP Dose-dependent effect

CC(O)(CSc1cc(C(F)(F)F)cc(C(F)(F)F)c1)C(=O)Nc1cccc(C(F)(F)C(F)(F)F)c1 (racemic)
active: DU-145 = Dose-dependent effect | CWR22R Dose-dependent effect | LNCaP Dose-dependent effect | VCaP Dose-dependent effect

CC(O)(COc1cccc(C(F)(F)C(F)(F)F)c1)C(=O)Nc1cc(C(F)(F)F)cc(C(F)(F)F)c1 (racemic)
active: DU-145 = Dose-dependent effect | CWR22R Dose-dependent effect | LNCaP Dose-dependent effect | VCaP Dose-dependent effect

CC(O)(CS(=O)(=O)c1ccccc1OC(F)(F)F)C(=O)Nc1ccc(S(F)(F)(F)(F)F)cc1 (racemic)
active: DU-145 = Dose-dependent effect | CWR22R Dose-dependent effect | LNCaP Dose-dependent effect | VCaP Dose-dependent effect

CC(O)(CS(=O)(=O)c1cccc(C(F)(F)F)c1)C(=O)Nc1ccc(S(F)(F)(F)(F)F)cc1 (racemic)
active: DU-145 = Dose-dependent effect | CWR22R Dose-dependent effect | LNCaP Dose-dependent effect | VCaP Dose-dependent effect

CC(O)(CS(=O)(=O)c1cccc(S(F)(F)(F)(F)F)c1)C(=O)Nc1ccc(S(F)(F)(F)(F)F)cc1 (racemic)
active: DU-145 = Dose-dependent effect | CWR22R Dose-dependent effect | LNCaP Dose-dependent effect | VCaP Dose-dependent effect

CC(O)(CS(=O)(=O)c1ccc(C(F)(F)F)cc1)C(=O)Nc1ccc(S(F)(F)(F)(F)F)cc1 (racemic)
active: DU-145 = Dose-dependent effect | CWR22R Dose-dependent effect | LNCaP Dose-dependent effect | VCaP Dose-dependent effect

CC(O)(COc1ccc(C(F)(F)C(F)(F)F)cc1)C(=O)Nc1cc(C(F)(F)F)cc(C(F)(F)F)c1 (racemic)
active: DU-145 = Dose-dependent effect | CWR22R Dose-dependent effect | LNCaP Dose-dependent effect | VCaP Dose-dependent effect

CC(O)(COc1cccc(C(F)(F)C(F)(F)F)c1)C(=O)Nc1ccc(C(F)(F)F)cc1 (racemic)
active: DU-145 = Dose-dependent effect | CWR22R Dose-dependent effect | LNCaP Dose-dependent effect | VCaP Dose-dependent effect

CC(O)(CS(=O)(=O)c1ccc(OC(F)(F)F)cc1)C(=O)Nc1cccc(S(F)(F)(F)(F)F)c1 (racemic)
active: DU-145 = Dose-dependent effect | CWR22R Dose-dependent effect | LNCaP Dose-dependent effect | VCaP Dose-dependent effect

CC(O)(CS(=O)(=O)c1cccc(C(F)(F)F)c1)C(=O)Nc1cccc(S(F)(F)(F)(F)F)c1 (racemic)
active: DU-145 = Dose-dependent effect | CWR22R Dose-dependent effect | LNCaP Dose-dependent effect | VCaP Dose-dependent effect

CC(O)(CS(=O)(=O)c1ccc(S(F)(F)(F)(F)F)cc1)C(=O)Nc1cccc(S(F)(F)(F)(F)F)c1 (racemic)
active: DU-145 = Dose-dependent effect | CWR22R Dose-dependent effect | LNCaP Dose-dependent effect | VCaP Dose-dependent effect

CC(O)(CS(=O)(=O)c1cc(C(F)(F)F)cc(C(F)(F)F)c1)C(=O)Nc1cccc(S(F)(F)(F)(F)F)c1 (racemic)
active: DU-145 = Dose-dependent effect | CWR22R Dose-dependent effect | LNCaP Dose-dependent effect | VCaP Dose-dependent effect

CC(O)(CS(=O)(=O)c1ccccc1C(F)(F)F)C(=O)Nc1cccc(S(F)(F)(F)(F)F)c1 (racemic)
active: DU-145 = Dose-dependent effect | CWR22R Dose-dependent effect | LNCaP Dose-dependent effect | VCaP Dose-dependent effect

CC(O)(CS(=O)(=O)c1ccc(OC(F)(F)F)cc1)C(=O)Nc1ccc(S(F)(F)(F)(F)F)cc1 (racemic)
active: DU-145 = Dose-dependent effect | CWR22R Dose-dependent effect | LNCaP Dose-dependent effect | VCaP Dose-dependent effect

CC(O)(CS(=O)(=O)c1ccccc1C(F)(F)F)C(=O)Nc1ccc(S(F)(F)(F)(F)F)cc1 (racemic)
active: DU-145 = Dose-dependent effect | CWR22R Dose-dependent effect | LNCaP Dose-dependent effect | VCaP Dose-dependent effect

CC(O)(CS(=O)(=O)c1cc(C(F)(F)F)cc(C(F)(F)F)c1)C(=O)Nc1ccc(S(F)(F)(F)(F)F)cc1 (racemic)
active: DU-145 = Dose-dependent effect | CWR22R Dose-dependent effect | LNCaP Dose-dependent effect | VCaP Dose-dependent effect

CC(O)(CS(=O)(=O)c1ccc(S(F)(F)(F)(F)F)cc1)C(=O)Nc1ccc(S(F)(F)(F)(F)F)cc1 (racemic)
active: DU-145 = Dose-dependent effect | CWR22R Dose-dependent effect | LNCaP Dose-dependent effect | VCaP Dose-dependent effect

CC(O)(COc1cc(C(F)(F)F)cc(C(F)(F)F)c1)C(=O)Nc1cccc(C(F)(F)C(F)(F)F)c1 (racemic)
active: DU-145 = Dose-dependent effect | CWR22R Dose-dependent effect | LNCaP Dose-dependent effect | VCaP Dose-dependent effect

CC(O)(CS(=O)(=O)c1cccc(S(F)(F)(F)(F)F)c1)C(=O)Nc1cccc(S(F)(F)(F)(F)F)c1 (racemic)
active: DU-145 = Dose-dependent effect | CWR22R Dose-dependent effect | LNCaP Dose-dependent effect | VCaP Dose-dependent effect

CC(O)(CS(=O)(=O)c1cccc(OC(F)(F)F)c1)C(=O)Nc1ccc(S(F)(F)(F)(F)F)cc1 (racemic)
active: DU-145 = Dose-dependent effect | CWR22R Dose-dependent effect | LNCaP Dose-dependent effect | VCaP Dose-dependent effect

CC(O)(CS(=O)(=O)c1ccc(F)cc1)C(=O)Nc1ccc(S(F)(F)(F)(F)F)cc1 (racemic)
active: DU-145 = Dose-dependent effect | CWR22R Dose-dependent effect | LNCaP Dose-dependent effect | VCaP Dose-dependent effect

CC(O)(CS(=O)(=O)c1cccc(OC(F)(F)F)c1)C(=O)Nc1cccc(S(F)(F)(F)(F)F)c1 (racemic)
active: DU-145 = Dose-dependent effect | CWR22R Dose-dependent effect | LNCaP Dose-dependent effect | VCaP Dose-dependent effect

CC(O)(CS(=O)(=O)c1ccccc1OC(F)(F)F)C(=O)Nc1cccc(S(F)(F)(F)(F)F)c1 (racemic)
active: DU-145 = Dose-dependent effect | CWR22R Dose-dependent effect | LNCaP Dose-dependent effect | VCaP Dose-dependent effect
